The entries are a selection whose mix differs from that of the whole data set. Calls of active or inactive are those of the source.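 The calls were made as follows: active = activation above the mean of all tested compounds plus 3 SD, set per screening campaign (cut at about 17% in these data); inactive = the rest.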
Target: Insulin-degrading enzyme (Homo sapiens) (UniProt P14735)
Test: human IDE activators in live cells, primary screen, fluorescence polarization, HEK cells, FAbeta-B substrate (AID 493087)
Conditions: FAbeta-B cleavage, at 5.96 µM, active compounds read high, 0% vehicle, 100% cell-free pure enzyme wells

Protein sequences, listed by entry. Tags and fused reporters are not part of them.
UniProt P14735, whole entry, looked up: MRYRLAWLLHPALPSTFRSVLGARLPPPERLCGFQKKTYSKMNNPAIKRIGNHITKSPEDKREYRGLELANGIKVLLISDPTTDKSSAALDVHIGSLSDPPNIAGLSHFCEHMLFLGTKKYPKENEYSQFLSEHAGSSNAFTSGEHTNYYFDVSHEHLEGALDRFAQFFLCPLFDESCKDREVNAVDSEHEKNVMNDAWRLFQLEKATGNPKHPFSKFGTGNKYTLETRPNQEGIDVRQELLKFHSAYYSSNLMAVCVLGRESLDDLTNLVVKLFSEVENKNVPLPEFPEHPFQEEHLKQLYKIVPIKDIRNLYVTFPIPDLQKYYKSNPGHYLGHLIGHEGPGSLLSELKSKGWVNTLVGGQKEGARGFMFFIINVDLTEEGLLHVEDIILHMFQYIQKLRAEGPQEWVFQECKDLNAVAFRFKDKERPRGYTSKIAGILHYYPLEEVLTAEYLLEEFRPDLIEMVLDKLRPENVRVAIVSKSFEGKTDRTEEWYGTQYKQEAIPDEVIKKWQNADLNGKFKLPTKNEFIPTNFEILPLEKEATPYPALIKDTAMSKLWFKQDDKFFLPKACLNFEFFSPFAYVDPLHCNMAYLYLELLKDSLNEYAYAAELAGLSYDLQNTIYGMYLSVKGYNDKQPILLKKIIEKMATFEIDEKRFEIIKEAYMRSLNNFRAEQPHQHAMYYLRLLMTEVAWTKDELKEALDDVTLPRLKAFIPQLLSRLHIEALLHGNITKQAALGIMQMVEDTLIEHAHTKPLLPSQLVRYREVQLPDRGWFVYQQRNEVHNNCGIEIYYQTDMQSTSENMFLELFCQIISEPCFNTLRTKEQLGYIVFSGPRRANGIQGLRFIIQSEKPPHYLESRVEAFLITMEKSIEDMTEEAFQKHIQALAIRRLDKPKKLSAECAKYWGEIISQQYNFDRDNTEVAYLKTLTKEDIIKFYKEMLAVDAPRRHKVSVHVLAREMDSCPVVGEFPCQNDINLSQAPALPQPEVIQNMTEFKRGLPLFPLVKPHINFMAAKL

Compound	activation
C[N+]1=C2C=CC=CC=C2SC12C([N+](=O)[O-])=CC([N+](=O)[O-])=C[C-]2[N+](=O)[O-] (configuration not stated)	inactive: -9.13%
CCN(/C(=N/P(=O)(N1CCOCC1)N1CCOCC1)N1CCOCC1)c1ccc(OC)cc1	inactive: -3.59%
CC(C)=N/N=C(\N)N[N+](=O)[O-]	inactive: 3.77%
CN(C)C(=O)OCCc1n(C)cc[n+]1C	inactive: -1.99%
CC1CCN(C(=O)Oc2c(Cl)cc(Cl)c3cccnc23)CC1	inactive: 6.08%
COc1ccc(C2=NCC(CBr)S2)cc1 (configuration not stated)	inactive: 1.95%
CC(=O)N1C2C3N(C(C)=O)C1C1N(C(C)=O)C(C(N1C(C)=O)N3C(C)=O)N2C(C)=O	inactive: 0.19%
O=[N+]([O-])c1cccc2n[nH]nc12	inactive: -2.65%
Cc1ccc(NP(=O)(Oc2ccccc2)Oc2ccccc2)nc1	inactive: 1.26%
O=[N+]([O-])c1cc([N+](=O)[O-])c(CCNc2ccccc2)c([N+](=O)[O-])c1	inactive: 4.73%
CCc1nc2c(n1)c1c(non1O)c1c2no[n+]1[O-]	inactive: 1.8%
CC(C)(C)C(=O)NC(Sc1ccncn1)C(Cl)(Cl)Cl (configuration not stated)	inactive: -7.29%
O=[N+]([O-])c1ncn(CCn2ncnc2[N+](=O)[O-])n1	inactive: -0.58%
O=[N+]([O-])c1cccc(NC2=NCC(CBr)S2)c1 (configuration not stated)	inactive: 2.22%
COC(=O)C1(C)COP(=O)(Nc2ccccc2)OC1 (configuration not stated)	inactive: 2.65%
O=C(O)CNc1ccc([As](=O)(O)O)cc1	inactive: 2.99%
O=P1(N(CCCl)CCCl)OCCCS1 (configuration not stated)	inactive: 3.07%
O=C(Nc1cc([As](=O)(O)O)ccc1O)c1ccccc1	inactive: 4.29%
O=[N+]([O-])c1ncn(CCn2cnc([N+](=O)[O-])n2)n1	inactive: 7.8%

Compound	activation
CC(=O)NC(SC(=S)N(C)C)C(Cl)(Cl)Cl (configuration not stated)	inactive: 1.52%
O=[N+]([O-])c1ccc(O)c(/C=N/Nc2ccc([N+](=O)[O-])cc2[N+](=O)[O-])c1	inactive: -2.3%
O=[As](O)(c1ccccc1)c1ccc(O)cc1	inactive: 4.63%
Nc1ccc([As](=O)(O)c2ccc([N+](=O)[O-])cc2)cc1	inactive: -5.07%
C(Cc1nn[nH]n1)Cc1nn[nH]n1	inactive: 5.39%
O=C(OC1CN2CCC1CC2)c1cccc(Cl)c1 (configuration not stated)	inactive: 1.17%
COc1ccc(N)c([N+](=O)[O-])c1[N+](=O)[O-]	inactive: 1.14%
CN(C)C1(CNC(=O)c2ccc(Cl)c(S(N)(=O)=O)c2)CCCCC1	inactive: 2.38%
O=P(Nc1ccccn1)(c1ccc(Br)cc1)c1ccc(Br)cc1	inactive: 0.64%
O=P(Nc1nc2ccccc2s1)(c1ccccc1)c1ccccc1	inactive: 2.75%
C[C@H]1OP(=O)(Oc2ccccc2)[C@H](O)[C@H](O)[C@H]1N=[N+]=[N-] (some centres not stated)	inactive: 1.98%
O=P(Nc1nccs1)(c1ccccc1)c1ccccc1	inactive: 2.9%
CC(C)C(=O)NC(Sc1ccccc1)C(Cl)(Cl)Cl (configuration not stated)	inactive: 0.72%
c1nnnn1CCn1cnnn1	inactive: -3.56%
N#C/C(=C\c1ccc(N(CCBr)CCBr)cc1)C(N)=O	inactive: -1.87%
CC(=O)c1ccc(N2CC2c2ccncc2)cc1 (configuration not stated)	inactive: 0.05%
COC(=O)C1(C)COP(=O)(NCc2ccccc2)OC1 (configuration not stated)	inactive: 4.1%
Cc1ccccc1CN(C)C(=O)COC(=O)C(O)(c1ccccc1)c1ccccc1	inactive: 2.28%
C[C@@H]1C=CCP(=O)(Oc2ccccc2)O1 (some centres not stated)	inactive: 1.27%

Compound	activation
C[C@H]1OP(=O)(Oc2ccccc2)C[C@@H]2O[C@@H]21 (some centres not stated)	inactive: 1.08%
CC(=O)Nc1ccc([As](=O)(O)O)c(O)c1	inactive: 5.67%
CC(=O)Nc1ccc(Oc2c([N+](=O)[O-])cc([N+](=O)[O-])cc2[N+](=O)[O-])cc1	inactive: 1.61%
O=P1(Nc2nc3ccc(Cl)cc3s2)COc2ccccc2O1 (configuration not stated)	inactive: 0.47%
CCOc1ccc(C2=NCC(CBr)S2)cc1 (configuration not stated)	inactive: -0.63%
CCc1cc(O)c([N+](=O)[O-])c(C)c1[N+](=O)[O-]	inactive: 1.58%
CC(C)(C)C(=O)NC(Sc1ccccc1)C(Cl)(Cl)Cl (configuration not stated)	inactive: 4.56%
COC(=O)c1cc2c(s1)N=C(c1ccccc1)N(C)P2(=O)N1CCOCC1 (configuration not stated)	inactive: 3.51%
Cc1ccc(OP(=O)(Nc2ccccn2)Oc2ccc(C)cc2)cc1	inactive: 1.92%
CC(=O)NC(SC(=S)N(CC(C)C)CC(C)C)C(Cl)(Cl)Cl (configuration not stated)	inactive: -0.52%
O=C(OC1CN2CCC1CC2)c1ccccc1 (configuration not stated)	inactive: 5.28%
CCC(=O)N1C2C3N(C(=O)CC)C1C1N(C(=O)CC)C(C(N1C(=O)CC)N3C(=O)CC)N2C(=O)CC	inactive: 0.82%
Cc1ccccc1OP(=O)(Nc1ccccn1)Oc1ccccc1C	inactive: 6.81%
CC(NC(=O)COC(=O)C(O)(c1ccccc1)c1ccccc1)c1ccccc1 (configuration not stated)	inactive: -1.03%
CN(C)C(=O)Oc1noc2ccccc12	inactive: 3.41%
O=c1c2cc([N+](=O)[O-])ccc2[nH]c2c([N+](=O)[O-])cc([N+](=O)[O-])cc12	inactive: 5%
O=C(NC1CCS(=O)(=O)C1)NP(=S)(Oc1ccccc1)Oc1ccccc1 (configuration not stated)	inactive: 6.28%
CCNC(=S)/N=C(\N)N[N+](=O)[O-]	inactive: -0.65%
O=P1(N(CCCl)CCCl)OCCC2CCCCN21 (configuration not stated)	inactive: -1.07%

From PubChem BioAssay AID493087 (The Scripps Research Institute Molecular Screening Center, 2011)
